# Data reported in PMC5735191, “Computational and biological profile of boronic acids for the detection of bacterial serine- and metallo-β-lactamases” (Scientific Reports, 2017).
# Assays:
# [1] = system: E. aerogenes clinical isolate, overproduction chromosomal AmpC; experiment: Susceptibility testing (MIC), synergy with ceftazidime; assay type: cell-based; details: antibiotic:inhibitor 1:1 (w/w)
# Procedure: (§1) The minimum inhibitory concentrations (MICs), for CAZ and CTX alone and in combination with boronic acids against resistant strains were determined (Table 2a,b).
# (§2) Susceptibility testing was performed in Mueller Hinton broth and interpreted following the guidelines of the National Committee for Clinical Laboratory Standards[70]. To test the inhibitory activity, the compounds were dissolved in DMSO, 50% in water, and further dilutions were performed using growth medium. In all cases tests were performed at a final DMSO concentration below 5%, avoiding unwanted DMSO inhibition effect on strains growth (blank test control with DMSO were performed). The MICs of cefotaxime and ceftazidime alone and in association were determined against several relevant Gram-negative clinical isolates, selected from the pathogen collection of the Spanish Network for Research in Infectious Pathology (REIPI; Spain). The selection was based on strains capability of producing β-lactamases of interest for the present study. The antibiotic:inhibitor ratio was 1:1 (w/w).
# [2] = system: VIM-2 P. aeruginosa clinical isolate; experiment: Susceptibility testing (MIC), synergy with cefotaxime; assay type: cell-based; details: antibiotic:inhibitor 1:1 (w/w)
# Procedure: as §1, §2
SMILES,MIC of ceftazidime (CAZ) in combination with compound [1],MIC of cefotaxime (CTX) in combination with compound [2]
NCc1ccc2sc(B(O)O)cc2c1 [Compound 3],128 µg/mL,
CC(C)(C)OC(=O)c1cccc2cc(B3OC(C)(C)C(C)(C)O3)sc12 [Compound 4],128 µg/mL,
CC(C)(C)OC(=O)Nc1cccc2cc(B(O)O)sc12 [Compound 6],128 µg/mL,128 µg/mL
